This passage reports inhibition results from ChEMBL document CHEMBL6109145, “Indolizine Derivatives Inhibit TRPM2 and Protect against Ischemic Brain Injury with an Extended Treatment Window” (J Med Chem, 2025).

Protein sequences, listed by entry. Tags and fused reporters are not part of them.
UniProt Q7Z2W7, whole entry, looked up: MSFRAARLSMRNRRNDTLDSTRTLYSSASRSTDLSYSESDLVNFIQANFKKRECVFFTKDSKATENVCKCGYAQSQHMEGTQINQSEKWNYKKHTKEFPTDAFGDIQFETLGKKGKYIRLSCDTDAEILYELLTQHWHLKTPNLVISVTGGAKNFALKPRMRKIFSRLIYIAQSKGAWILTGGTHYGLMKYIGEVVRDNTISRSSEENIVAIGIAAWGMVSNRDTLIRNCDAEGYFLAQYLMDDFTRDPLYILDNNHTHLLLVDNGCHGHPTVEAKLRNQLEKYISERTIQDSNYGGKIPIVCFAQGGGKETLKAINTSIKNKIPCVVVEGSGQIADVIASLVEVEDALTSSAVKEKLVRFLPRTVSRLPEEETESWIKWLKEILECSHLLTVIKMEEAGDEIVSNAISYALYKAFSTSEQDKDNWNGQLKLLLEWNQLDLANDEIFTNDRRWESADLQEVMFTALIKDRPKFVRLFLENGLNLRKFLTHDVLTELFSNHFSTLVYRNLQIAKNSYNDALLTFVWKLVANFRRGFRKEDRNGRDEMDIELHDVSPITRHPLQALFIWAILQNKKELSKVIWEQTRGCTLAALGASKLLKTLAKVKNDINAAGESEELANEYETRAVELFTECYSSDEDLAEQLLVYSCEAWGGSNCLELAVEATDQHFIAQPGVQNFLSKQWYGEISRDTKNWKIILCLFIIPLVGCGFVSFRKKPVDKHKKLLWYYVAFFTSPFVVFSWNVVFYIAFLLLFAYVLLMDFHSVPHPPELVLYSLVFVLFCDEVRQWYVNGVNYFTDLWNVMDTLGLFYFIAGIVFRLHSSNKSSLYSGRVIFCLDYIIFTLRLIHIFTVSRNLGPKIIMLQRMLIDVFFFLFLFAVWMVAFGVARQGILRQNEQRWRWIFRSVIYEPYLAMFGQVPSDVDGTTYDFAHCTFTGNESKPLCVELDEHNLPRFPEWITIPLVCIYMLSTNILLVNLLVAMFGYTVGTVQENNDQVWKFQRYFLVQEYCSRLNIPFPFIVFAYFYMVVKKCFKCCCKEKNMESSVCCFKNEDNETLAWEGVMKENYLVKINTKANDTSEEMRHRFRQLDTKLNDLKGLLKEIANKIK
UniProt Q9HBA0, whole entry: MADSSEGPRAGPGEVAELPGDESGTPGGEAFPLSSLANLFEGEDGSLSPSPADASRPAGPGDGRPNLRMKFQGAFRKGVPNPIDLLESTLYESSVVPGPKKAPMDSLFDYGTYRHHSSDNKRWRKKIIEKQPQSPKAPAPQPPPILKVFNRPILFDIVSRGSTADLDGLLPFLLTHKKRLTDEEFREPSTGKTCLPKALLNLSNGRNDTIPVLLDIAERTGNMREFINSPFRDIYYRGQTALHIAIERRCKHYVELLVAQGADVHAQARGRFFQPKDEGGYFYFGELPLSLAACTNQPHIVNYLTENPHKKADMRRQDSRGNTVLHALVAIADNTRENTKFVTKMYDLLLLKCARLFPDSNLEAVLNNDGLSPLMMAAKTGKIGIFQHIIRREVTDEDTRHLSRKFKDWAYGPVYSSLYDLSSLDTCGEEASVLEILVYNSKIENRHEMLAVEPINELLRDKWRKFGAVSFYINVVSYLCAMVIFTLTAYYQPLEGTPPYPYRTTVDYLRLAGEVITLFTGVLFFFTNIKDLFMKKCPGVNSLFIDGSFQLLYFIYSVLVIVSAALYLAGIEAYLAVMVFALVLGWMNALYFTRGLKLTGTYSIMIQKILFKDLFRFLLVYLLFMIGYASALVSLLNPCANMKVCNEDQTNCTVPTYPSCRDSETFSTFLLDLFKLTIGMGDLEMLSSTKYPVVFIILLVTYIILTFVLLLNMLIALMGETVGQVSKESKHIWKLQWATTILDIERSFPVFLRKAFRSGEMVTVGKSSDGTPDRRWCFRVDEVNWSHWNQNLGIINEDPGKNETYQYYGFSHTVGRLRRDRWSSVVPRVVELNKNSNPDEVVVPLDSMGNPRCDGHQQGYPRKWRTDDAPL

Holding throughout (format): cell-based
Assay [1] deals with T1, Short transient receptor potential channel 6 (Homo sapiens) (UniProt Q9Y210).
T1 sequence (whole entry): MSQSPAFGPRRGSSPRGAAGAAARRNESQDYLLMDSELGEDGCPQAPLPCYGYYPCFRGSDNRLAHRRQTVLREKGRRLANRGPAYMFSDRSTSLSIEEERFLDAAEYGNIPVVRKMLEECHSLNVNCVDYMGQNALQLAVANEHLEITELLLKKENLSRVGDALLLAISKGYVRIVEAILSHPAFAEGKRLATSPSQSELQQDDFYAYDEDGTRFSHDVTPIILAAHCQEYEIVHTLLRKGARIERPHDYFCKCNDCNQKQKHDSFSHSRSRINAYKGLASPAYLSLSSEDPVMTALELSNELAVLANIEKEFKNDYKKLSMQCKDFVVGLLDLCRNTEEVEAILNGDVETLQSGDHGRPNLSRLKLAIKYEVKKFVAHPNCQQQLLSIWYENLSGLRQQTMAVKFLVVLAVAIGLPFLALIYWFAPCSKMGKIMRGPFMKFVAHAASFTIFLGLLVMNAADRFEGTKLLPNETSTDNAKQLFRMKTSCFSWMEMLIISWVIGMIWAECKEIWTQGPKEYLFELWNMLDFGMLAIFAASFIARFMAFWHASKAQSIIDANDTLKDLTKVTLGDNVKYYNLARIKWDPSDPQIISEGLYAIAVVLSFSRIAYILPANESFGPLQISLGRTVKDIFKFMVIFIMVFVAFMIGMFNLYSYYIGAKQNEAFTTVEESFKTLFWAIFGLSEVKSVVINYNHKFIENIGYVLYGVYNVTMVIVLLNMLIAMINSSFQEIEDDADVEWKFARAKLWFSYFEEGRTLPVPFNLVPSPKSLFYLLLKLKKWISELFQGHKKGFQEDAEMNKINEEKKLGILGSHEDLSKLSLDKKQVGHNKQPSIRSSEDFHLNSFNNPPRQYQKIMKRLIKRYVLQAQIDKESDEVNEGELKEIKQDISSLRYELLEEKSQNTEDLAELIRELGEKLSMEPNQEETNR
Description: Inhibition of TRPC6 channel (unknown origin) in doxycycline-inducible human HEK-293T cells assessed as inhibition of hyperforin activated current by measuring inhibition rate at +80 mV to -80 mV at 30 uM by whole-cell patch clamp electrophysiology relative to control.

Assay [2] deals with Transient receptor potential cation channel subfamily M member 8 (Homo sapiens) (UniProt Q7Z2W7). The assay can be described thus: Inhibition of TRPM8 (unknown origin) in doxycycline-inducible human HEK-293T cells assessed as inhibition of menthol activated current by measuring inhibition rate at +80 mV to -80 mV at 30 uM by whole-cell patch clamp electrophysiology relative to control. For orientation: The patch-clamp technique gives a direct electrical read-out from membranes.

Assay [3] has as its target T2, Acid-sensing ion channel 1 (Homo sapiens) (UniProt P78348).
T2 sequence (whole entry): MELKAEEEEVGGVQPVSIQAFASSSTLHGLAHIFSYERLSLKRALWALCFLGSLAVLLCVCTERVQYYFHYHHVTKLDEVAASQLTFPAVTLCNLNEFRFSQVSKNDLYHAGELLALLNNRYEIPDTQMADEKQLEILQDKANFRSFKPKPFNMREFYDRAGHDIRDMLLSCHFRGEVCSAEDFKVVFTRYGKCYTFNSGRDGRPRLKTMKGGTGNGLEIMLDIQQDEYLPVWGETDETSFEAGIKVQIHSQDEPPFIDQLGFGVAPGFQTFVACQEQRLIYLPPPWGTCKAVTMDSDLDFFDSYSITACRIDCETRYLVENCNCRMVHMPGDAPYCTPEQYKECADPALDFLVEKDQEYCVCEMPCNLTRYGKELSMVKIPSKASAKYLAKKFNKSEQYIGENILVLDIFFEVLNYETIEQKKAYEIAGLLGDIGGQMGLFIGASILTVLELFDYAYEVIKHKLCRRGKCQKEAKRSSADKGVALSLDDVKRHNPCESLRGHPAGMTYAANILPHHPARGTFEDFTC
The assay can be described thus: Inhibition of ASIC1a (unknown origin) in doxycycline-inducible human HEK-293T cells assessed as intracellular calcium at 30 uM by Fluo-4 AM staining based fluorescence assay.

Assay [4] concerns the target Transient receptor potential cation channel subfamily V member 4 (Homo sapiens) (UniProt Q9HBA0). The assay can be described thus: Inhibition of TRPV4 channel (unknown origin) in doxycycline-inducible human HEK-293T cells assessed as inhibition of GSK1016790A activated current by measuring inhibition rate at +80 mV to -80 mV at 30 uM by whole-cell patch clamp electrophysiology relative to control.

As a reminder, the inhibition is the percentage by which the read-out fell short of the control. Take `COC(=O)c1cc(C(=O)c2ccccc2)n2cccc2c1`: the inhibition came out at 15.8% in assay [1], 20.7% in assay [2], 15.6% in assay [3] and 14% in assay [4].
